Test system: IMR90 normal, human lung fibroblasts
Conditions: listed as JG-294

CCn1c(=O)/c(=C2\Sc3cc(Br)ccc3N2C)s/c1=C\c1scc[n+]1Cc1ccc(C(F)(F)F)o1.[Cl-] [Compound 60]
Selectivity Index (IMR-90/MCF7): more than 98

Reference: publication PMC6104643 (Journal of medicinal chemistry, 2018)
